This assay relates to B16F10 melanoma tumor. In words: In vivo anticancer efficacy, subcutaneous B16F10 melanoma tumor model. Also noted: species or system BALB/c nude mice. As to the method:
Tumor-bearing mice were established by subcutaneously injecting a suspension of 5 × 10^5 B16F10 cells per mouse into the front flank of each nude mouse. When tumor volume reached 50−70 mm^3, the animals were randomly divided into five groups (n = 5). The mice were administered different compounds suspended in PBS via the tail vein every 3 days for a total of four times.
The mice underwent four treatment courses on day 0, day 3, day 6, and day 9. Tumor size and body weight were measured every day. Tumor volume was calculated via the following formula: V = 1/2 × (minor axis) × (major axis)[2].
After 12 days, the mice were sacrificed and dissected to obtain tumor tissues and main organs, including heart, liver, spleen, lung, and kidney. Subsequently, all tissues were fixed in a 4% paraformaldehyde solution, routinely paraffin-embedded and sectioned, and then stained with hematoxylin and eosin, as well as using TdT-mediated dUTP nick-end labeling (TUNEL) for subsequent pathological analysis. TUNEL-positive cells appeared fluorescent green, representing the apoptosis of tumor cells (nuclei were fluorescent blue, stained with DAPI).
13. In vivo anticancer efficacy […]
13.2 Calculation of the tumor growth inhibition values (TGI)
Tumor growth inhibition values (TGI) were calculated using the following formula: TGI (%) = (1 − RTVtreatment/
RTVcontrol)*100. RTV refers to relative tumor volume, representing the ratio of the volume at the end of treatment to the
volume at the beginning of treatment. […]

For `COc1cccc2c1C(=O)c1c(O)c3c(c(O)c1C2=O)C[C@@](O)(C(=O)CO)C[C@@H]3O[C@H]1C[C@H](N)[C@H](O)[C@H](C)O1` [Dox, doxorubicin], the “tumor growth inhibition values (TGI %)” value by setting is: (Data 1) 61.6%; (Data 2) 62.21%; (Data 4) 62.1%.

(Values after paper PMC10987521, “An all-in-one tetrazine reagent for cysteine-selective labeling and bioorthogonal activable prodrug construction” (Nature Communications, 2024).)
